Measured values: patent US9072756B2, “Methods and compositions for increasing the efficacy of an agent that directly or indirectly affects a muscarinic receptor through administration of a pyrophosphate analog” (HealthPartners Research Foundation, priority 2000, dated 2015)

Tested on: muscarinic acetylcholine receptor (mAChR)
Assay: Protection of mAChR from inactivation by the endogenous LMW inhibitor, [3H]QNB (antagonist) binding
Set-up: species or system human
Details: 3H-QNB binding, FIGS. 4-7, 15, 17, 19

Substance: guanylimidodiphosphate
- protection of the mAChR from inactivation by the LMW inhibitor (in words): protect the mAChR from inactivation
